Measured values taken from patent publication US20050020576A1, “Kappa agonist compounds and pharmaceutical formulations thereof” (priority 1996, published 2005).
Read-outs that look alike come from different tables or passages of the source.

Sequences of proteins named here, by UniProt entry; tags and fusion partners are left off. A change or cut given only in a name is not applied to a line headed by its entry.
UniProt P41145: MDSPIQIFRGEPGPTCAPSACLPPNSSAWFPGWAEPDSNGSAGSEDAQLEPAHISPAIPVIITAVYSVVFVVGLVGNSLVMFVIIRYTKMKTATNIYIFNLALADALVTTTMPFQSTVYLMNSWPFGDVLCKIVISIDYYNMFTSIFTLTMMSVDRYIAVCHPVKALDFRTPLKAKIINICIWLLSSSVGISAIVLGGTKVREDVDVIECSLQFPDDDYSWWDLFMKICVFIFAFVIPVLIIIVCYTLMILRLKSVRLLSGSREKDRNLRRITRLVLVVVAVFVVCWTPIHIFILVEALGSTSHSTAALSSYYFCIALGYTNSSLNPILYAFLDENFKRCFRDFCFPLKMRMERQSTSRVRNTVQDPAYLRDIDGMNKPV

Assays:
[1] = molecular target: T1, cloned human kappa receptor (Homo sapiens, UniProt P41145); conditions: for % @ 1 μM, diprenorphine: at 1 μM compound
[2] = system: formalin-induced flinching; assay: Formalin-induced nociception, late (tonic) phase flinching; assay type: in vivo, male Sprague-Dawley rats
[3] = molecular target: T1, cloned human kappa receptor; assay: [3H]U69593 (agonist) binding to the cloned human kappa receptor
[4] = read-out: Ki (nM) [3H]-Diprenorphin κ, Table IIIA
[5] = read-out: Ki(nM) [3H]-Diprenorphin, Table IVA
[6] = read-out: Ki(nM) U-69593, [3H]U69593 binding, compounds of Formula IV
[7] = read-out: Ki(nM) diprenorphine, [3H]diprenorphine binding, compounds of Formula IV
[8] = late phase formalin-induced flinching
[9] = read-out: Ki (nM) k (mg) [3H]U69,593, Table II
[10] = read-out: Ki (nM) k [3H] Diprenorphin, Table II

Compound: CN(C(=O)Cc1ccc(C(F)(F)F)cc1)C(CN1CCCC1)c1cccc(O)c1 (stereo not drawn)
- Ki [1, 4]: 0.59 nM

Compound: CN(C(=O)Cc1ccc(C(F)(F)F)cc1)[C@H](CN1CC[C@H](O)C1)c1ccccc1
- Late Phase Formalin, % @ 300 ([2]; Table IIIA): 97% @ 300
- Ki [1, 4]: 0.17 nM

Compound: CN(C(=O)Cc1ccc(F)cc1)[C@H](CN1CCCC1)c1ccccc1
- Ki [1, 4]: 1.1 nM

Compound: CN(C(=O)Cc1ccc(O)c(O)c1)[C@H](CN1CCCC1)c1ccccc1
- Ki [1, 4]: 8.8 nM

Compound: CN(C(=O)Cc1ccccc1F)[C@H](CN1CCCC1)c1ccccc1
- Ki [1, 4]: 4.45 nM

Compound: CN(C(=O)Cc1ccccn1)[C@H](CN1CC[C@H](O)C1)c1ccccc1
- Late Phase Formalin A50 ([2]; Table IIIA): 1.4 mg/kg
- Ki [1, 4]: 5.2 nM

Compound: CN(C(=O)Cc1cncc(Br)c1)C1CCCCC1N1CCCC1 (stereo not drawn)
- Ki [1, 5]: 340 nM

Compound: CN(C(=O)Cc1cncc(Br)c1)[C@H](CN1CC[C@H](O)C1)c1ccccc1
- Late Phase Formalin, % @ 300 ([2]; Table IIIA): 88% @ 300
- Ki [1, 4]: 0.44 nM

Compound: COc1ccc(CC(=O)N(C)[C@H](CN2CCCC2)c2ccccc2)cc1OC
- Ki [1, 4]: 2.8 nM

Compound: COc1cccc(C(CN2CCCC2)N(C)C(=O)Cc2ccc(C(F)(F)F)cc2)c1 (stereo not drawn)
- Ki [1, 4]: 0.64 nM

Compound: 2-(2-Nitrocinnamyl)-N-methyl-N-[(1S)-1-phenyl-2-(1-pyrrolidinyl) ethyl]acetamide hydrochloride
- Ki [1, 4]: 164 nM

Compound: 2-(3,4-Dichlorocinnamyl)-N-methyl-N-[(1S)-1-phenyl-2-(1-Pyrrolidinyl)-ethyl]acetamide hydrochloride
- Ki [1, 4]: 362 nM

Compound: 2-(5-Bromo-3-pyridyl)-N-methyl-N-[(1S)-1-phenyl-2-pyrrolidinyl ethyl]acetamide hydrochloride
- Ki [1, 4]: 0.56 nM

Compound: CN(C(=O)Cc1cc(Cl)c(Cl)cc1NC(=O)/C=C\C(=O)O)[C@H]1CCCC[C@@H]1N1CCCC1 (racemic)
- Ki [1, 5]: 77 nM

Compound: CNS(=O)(=O)c1cccc(CC(=O)N(C)[C@@H]2CCCC[C@H]2N2CCCC2)c1OC.Cl (racemic)
- Ki [1, 5]: 294 nM

Compound: CN(C(=O)Cc1ccccc1NS(C)(=O)=O)[C@@H]1CCCC[C@H]1N1CCCC1.Cl (racemic)
- Ki [3, 6]: 675 nM
- Ki [1, 7]: 3180 nM

Compound: CN(C(=O)Cc1ccc(S(C)(=O)=O)cc1)[C@@H]1CCCC[C@H]1N1CCCC1.Cl (racemic)
- Ki [3, 6]: 96 nM

Compound: CN(C(=O)Cc1cc(Cl)c(Cl)cc1N)[C@@H]1CCCC[C@H]1N1CCCC1 (racemic)
- Ki [3, 6]: 1.7 nM
- Ki [1, 7]: 10.6 nM

Compound: CN(C(=O)Cc1cc(Cl)c(Cl)cc1N)[C@@H]1CCCC[C@H]1N1CCCC1.Cl (racemic)
- Late Phase Formalin A50 [2, 8]: 72.0 mg

Compound: CN(C(=O)Cc1cc(Cl)c(Cl)cc1[N+](=O)[O-])[C@@H]1CCCC[C@H]1N1CCCC1 (racemic)
- Ki [3, 6]: 1.4 nM
- Ki [1, 7]: 6.7 nM

Compound: CN(C(=O)Cc1cc(Cl)c(Cl)cc1[N+](=O)[O-])[C@@H]1CCCC[C@H]1N1CCCC1.Cl (racemic)
- Late Phase Formalin A50 [2, 8]: 3.5 mg

Compound: CN(C(=O)Cc1cc(Cl)c(Cl)cc1[N+](=O)[O-])[C@H]1c2cc([N+](=O)[O-])ccc2CC[C@@H]1N1CCCC1 (racemic)
- Ki [3, 9]: 0.8 nM
- Ki [1, 10]: 2.8 nM

Compound: CN(C(=O)Cc1cc(Cl)c(Cl)cc1[N+](=O)[O-])[C@H]1c2ccccc2C[C@@H]1N1CCCC1 (racemic)
- Ki [3, 9]: 0.74 nM
- Ki [1, 10]: 5.7 nM

Compound: CN(C(=O)Cc1cc([N+](=O)[O-])cc(C(F)(F)F)c1)[C@@H]1CCCC[C@H]1N1CCCC1 (racemic)
- Ki [3, 6]: 10.8 nM

Compound: CN(C(=O)Cc1cc([N+](=O)[O-])cc(C(F)(F)F)c1)[C@@H]1CCCC[C@H]1N1CCCC1.Cl (racemic)
- % @ 1 μM, diprenorphine ([1]; [3H]diprenorphine binding): 61% @ 1 μM

Compound: CN(C(=O)Cc1ccc(C(F)(F)F)cc1)[C@@H]1CCCC[C@H]1N1CCCC1 (racemic)
- Ki [3, 6]: 3.75 nM

Compound: CN(C(=O)Cc1ccc(C(F)(F)F)cc1)[C@@H]1CCCC[C@H]1N1CCCC1.Cl (racemic)
- % @ 1 μM, diprenorphine ([1]; [3H]diprenorphine binding): 77% @ 1 μM

Compound: CN(C(=O)Cc1ccc(C(F)(F)F)cc1N)[C@@H]1CCCC[C@H]1N1CCCC1 (racemic)
- Ki [3, 6]: 5.4 nM

Compound: CN(C(=O)Cc1ccc(C(F)(F)F)cc1N)[C@@H]1CCCC[C@H]1N1CCCC1.Cl (racemic)
- % @ 1 μM, diprenorphine ([1]; [3H]diprenorphine binding): 43% @ 1 μM

Compound: CN(C(=O)Cc1ccc(C(F)(F)F)cc1NCC(=O)O)C1CCCCC1N1CCCC1 (racemic)
- Ki [3, 6]: 2.35 nM
- Ki [1, 7]: 43.5 nM

Compound: CN(C(=O)Cc1ccc(C(F)(F)F)cc1NS(C)(=O)=O)[C@@H]1CCCC[C@H]1N1CCCC1 (racemic)
- Ki [3, 6]: 216 nM

Compound: CN(C(=O)Cc1ccc(C(F)(F)F)cc1[N+](=O)[O-])[C@@H]1CCCC[C@H]1N1CCCC1 (racemic)
- Ki [3, 6]: 13.4 nM

Compound: CN(C(=O)Cc1ccc(C(F)(F)F)cc1[N+](=O)[O-])[C@@H]1CCCC[C@H]1N1CCCC1.Cl (racemic)
- % @ 1 μM, diprenorphine ([1]; [3H]diprenorphine binding): 59% @ 1 μM

Compound: CN(C(=O)Cc1ccc(Cl)c(Cl)c1)[C@H]1c2cc(N)ccc2CC[C@@H]1N1CCCC1 (racemic)
- Ki [3, 9]: 0.35 nM
- Ki [1, 10]: 2.2 nM

Compound: CN(C(=O)Cc1ccc(Cl)c(Cl)c1)[C@H]1c2cc(O)ccc2CC[C@@H]1N1CCCC1 (racemic)
- Ki [3, 9]: 0.18 nM
- Ki [1, 10]: 0.6 nM

Compound: CN(C(=O)Cc1ccc(Cl)c(Cl)c1)[C@H]1c2cc(OCC(=O)O)ccc2CC[C@@H]1N1CCCC1 (racemic)
- Ki [3, 9]: 7 nM
- Ki [1, 10]: 40 nM

Compound: CN(C(=O)Cc1ccc(Cl)c(Cl)c1)[C@H]1c2cc([N+](=O)[O-])ccc2CC[C@@H]1N1CCCC1 (racemic)
- Ki [3, 9]: 0.7 nM
- Ki [1, 10]: 9.6 nM

Compound: CN(C(=O)Cc1ccc(Cl)c(Cl)c1)[C@H]1c2ccccc2CCC[C@@H]1N1CCCC1 (racemic)
- Ki [3, 9]: 2.8 nM
- Ki [1, 10]: 8.4 nM

Compound: CN(C(=O)Cc1ccc(Cl)c(Cl)c1)[C@H]1c2ccccc2C[C@@H]1N1CCCC1 (racemic)
- Ki [3, 9]: 2 nM
- Ki [1, 10]: 12 nM

Compound: CN(C(=O)Cc1ccc(N)cc1C(F)(F)F)[C@@H]1CCCC[C@H]1N1CCCC1 (racemic)
- Ki [3, 6]: 21 nM

Compound: CN(C(=O)Cc1ccc(N)cc1C(F)(F)F)[C@@H]1CCCC[C@H]1N1CCCC1.Cl (racemic)
- % @ 1 μM, diprenorphine ([1]; [3H]diprenorphine binding): 50% @ 1 μM

Compound: CN(C(=O)Cc1ccc(S(C)(=O)=O)cc1)[C@H]1c2cc([N+](=O)[O-])ccc2CC[C@@H]1N1CCCC1 (racemic)
- Ki [3, 9]: 12.8 nM

Compound: CN(C(=O)Cc1ccc(S(C)(=O)=O)cc1)[C@H]1c2ccccc2C[C@@H]1N1CCCC1 (racemic)
- Ki [3, 9]: 29 nM

Compound: CN(C(=O)Cc1cccc(C(F)(F)F)c1)[C@@H]1CCCC[C@H]1N1CCCC1 (racemic)
- Ki [3, 6]: 11.2 nM
- Ki [1, 7]: 192 nM

Compound: CN(C(=O)Cc1cccc(C(F)(F)F)c1[N+](=O)[O-])[C@@H]1CCCC[C@H]1N1CCCC1 (racemic)
- Ki [3, 6]: 1.4 nM
- Ki [1, 7]: 5.65 nM

Compound: CN(C(=O)Cc1cccc([N+](=O)[O-])c1)C1c2ccccc2CC1N1CCCC1 (racemic)
- Ki [3, 9]: 1.8 nM
- Ki [1, 10]: 13 nM

Compound: CN(C(=O)Cc1ccccc1C(F)(F)F)[C@@H]1CCCC[C@H]1N1CCCC1 (racemic)
- Ki [3, 6]: 25 nM

Compound: CN(C(=O)Cc1ccccc1C(F)(F)F)[C@@H]1CCCC[C@H]1N1CCCC1.Cl (racemic)
- % @ 1 μM, diprenorphine ([1]; [3H]diprenorphine binding): 53% @ 1 μM

Compound: CN(C(=O)Cc1ccccc1N)[C@@H]1CCCC[C@H]1N1CCCC1 (racemic)
- Ki [3, 6]: 433 nM
- Ki [1, 7]: 1030 nM

Compound: CN(C(=O)Cc1ccccc1NCC(=O)O)C1CCCCC1N1CCCC1 (racemic)
- Ki [3, 6]: 866 nM

Compound: CN(C(=O)Cc1ccccc1[N+](=O)[O-])[C@@H]1CCCC[C@H]1N1CCCC1 (racemic)
- Ki [3, 6]: 100 nM
- Ki [1, 7]: 596 nM

Compound: COc1ccc2c(c1)[C@H](N(C)C(=O)Cc1ccc(Cl)c(Cl)c1)[C@@H](N1CCCC1)CC2 (racemic)
- Ki [3, 9]: 0.8 nM
- Ki [1, 10]: 4.7 nM

Compound: CN(C(=O)C(c1ccccc1)c1ccccc1)[C@H](CN1CC[C@H](O)C1)c1ccccc1 [III-43, reference compound]
- Ki ([3]; read-out: Ki (nM) k [3H]U69.593, Table III): 0.34 nM
- Ki ([1]; read-out: Ki (nM) k [3H]Diprenorphin, Table III): 0.52 nM
